Source: PubChem (National Center for Advancing Translational Sciences (NCATS))
IL-2 act: activators of IL-2; IL-2 activation reporter assay, cell-based qHTS; stimulated with anti-CD3/CD4/CD28 beads; in transgenic mouse T cells; activation, % (series mostly up to about 46 µM); AID 652025; actives 0.065% (n = 360,000); in the data active means activation above about 50%; inconclusive means mostly about 30% to 49%; further: 0% is about no effect
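First, unstimulated transgenic mouse T cells were exposed to compound for 60 min. Next, anti-CD3/anti-CD4-coated beads with anti-CD28 were added. Finally, after 18 h at 37 degrees C, EGFP and DsRed were imaged.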
A549 viability: A549 cytotoxicity, counter-screen for Nrf2 inhibitors. A549 ARE-Fluc cells, CellTiter-Fluor viability, 18-24 h. Potency, µM (series often up to 46 µM), for inactives: at the top dose activity change, negative = cytotoxicity, usual class: inhibitors. actives 0.16% (n = 390,000); further: potency means the concentration at half of the fitted maximal effect; on the % scale 0 is the no-effect control and ±100 the full control effect
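Cytotoxicity counterscreen: CellTiter-Fluor fluorescence was measured in A549 ARE_Fluc cells after 18-24 h of compound exposure in a concentration series. The subsequent BugLite luminescent read reports ARE-luciferase activity.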
miR-21 reporter: miR-21 reporter, rising signal; HeLa miR-21 FLuc reporter, luciferase, 48 h; Potency, µM (titrated, usually from 38.3 µM), for the others: at the top dose reporter change, positive = more light; 340,000 tested, under 10 active; AID 2288; active = well fitted rising curve with a large enough effect; inconclusive = small, poorly fitted or top-dose-only effect; inactive = no such curve, though single readings can be large or run the other way;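 also: % of control where 0% means no effect; miR-21 action dims this reporter so a rising signal means less miR-21 action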
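Using DMEM plus 10% FBS, HeLa miR-21-FLuc cells are incubated with test compounds (final up to about 40uM) for 48 hours; firefly luciferase signal is then imaged following reagent-mediated lysis.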
Nrf2 activator: activators of Nrf2 (ARE) signaling; actives 0.31% (n = 410,000); AID 624171; Potency, µM (series often up to 46.1 µM), for inactives: at the highest dose activation, usual class: activators; AREc32 ARE-luciferase reporter (MCF7-derived line), luminescence, 24 h; further: potency means the concentration at half of the fitted maximal effect; % of control where 0% means no effect; nearly all actives have a fitted effect of over 65% in size
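AREc32_Fluc, 1000 cells/well, OPTI-MEM + 5% FBS, o/n 37 deg C 5% CO2; 23 nL cpd by pin tool, 24 hr; Steady-Glo 30 min RT, luminescence.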
Nrf2 block: inhibitors of Nrf2 signaling; A549 ARE-Fluc reporter, luciferase luminescence, 18-24 h; Potency, µM (titrated, usually from 46 µM), without a hit: top-dose activity change, negative = inhibition, usual class: inhibitors; actives 2.1% (n = 360,000); further: potency means the concentration at half of the fitted maximal effect; on the % scale 0 is the no-effect control and ±100 the full control effect; nearly all actives have a fitted effect of over 60% in size
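Nrf2 function is reported as luminescence of an ARE-controlled luciferase in A549 cells. Compounds were tested at several concentrations, and a CellTiter-Fluor read on the same wells flagged cytotoxicity.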
ClpP mod: qHTS Assay for Activators of ClpP | ATP-dependent Clp protease proteolytic subunit (Bacillus subtilis (strain 168)), P80244 | purified B. subtilis ClpP, FRET peptide cleavage, 20 min | Potency, µM (series often up to 57.5 µM), for inactives: top-dose activity change, negative = active | actives 1.9% (n = 340,000); active means well fitted falling curve with a large enough effect; inconclusive means small, poorly fitted or top-dose-only effect; inactive means no such curve, though single readings can be large or run the other way; further: potency means the concentration at half of the fitted maximal effect; the source files actives as falling curves though it sought activators and does not explain the sign; nearly all actives have a fitted effect of over 65% in size
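Purified B. subtilis ClpP, 10 microg/mL final in Tris/HCl pH8 with KCl, BSA, glycerol and Tween-20, cleaved an Abz/nitrotyrosine-quenched decapeptide. Fluorescence (ex 320, em 430) was read at 0 and 20 min at room temperature. Delta was normalized to 5.8 microM ADEP and DMSO/no-enzyme controls.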
An asterisk follows results filed as active; u = inconclusive; x = no result given. Only some compounds are listed: those with a hit (about 3.7% of all), similar ones and a draw of the others. Unless noted, the call rests on the fitted dose curve; in most records, active means well fitted curve in the direction sought with a large enough effect; inconclusive means small, poorly fitted or top-dose-only effect, or another doubt; inactive means no such curve, though single readings can be large; an effect the other way counts as inactive or inconclusive.

By UniProt entry, the sequences of proteins in these tests, tags left out.
ATP-dependent Clp protease proteolytic subunit (Bacillus subtilis (strain 168)), P80244, UniProt P80244, whole entry, looked up: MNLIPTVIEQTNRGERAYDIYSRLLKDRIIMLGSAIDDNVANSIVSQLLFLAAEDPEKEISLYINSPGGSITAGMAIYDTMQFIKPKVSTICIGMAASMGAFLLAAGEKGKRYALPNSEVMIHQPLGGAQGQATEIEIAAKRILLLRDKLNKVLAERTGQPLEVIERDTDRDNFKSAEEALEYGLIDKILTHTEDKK

Values in the order – IL-2 act | A549 viability | miR-21 reporter | Nrf2 activator | Nrf2 block | ClpP mod
- Cc1nn2c(N)c(C#N)cnc2c1-c1ccccc1
    1 | -6% | -84% | 3% | 15% | -16%
- Oc1ccc(NCc2ccccc2F)c2cccnc12
    x | -5% | x | x | -5% | x
- CCOC(=O)c1sc(N2C(=O)C(O)=C(C(=O)c3ccc(C)o3)C2c2cccc([N+](=O)[O-])c2)nc1C (stereo not drawn)
    -1 | u | -10% | 1% | 23µM* | 1%
- CCOC(=O)c1sc(N2C(=O)C(O)=C(C(=O)c3ccc(C)o3)C2c2ccc(OC)c(OC)c2)nc1C (stereo not drawn)
    1 | u | -5% | 0% | u | 1%
- CCc1ccc(NC(=O)C(=O)NCC(c2ccc3c(c2)OCO3)N2CCOCC2)cc1 (stereo not drawn)
    x | 1% | -1% | 0% | x | -1%
- Cc1ccc(-c2csc(NC(=O)CCNC(=O)c3ccc(Cl)cc3)n2)cc1
    -1 | -1% | 0% | 0% | 3% | x
- Cc1ccc(-c2csc(NC(=O)CCNC(=O)c3ccccc3Cl)n2)cc1
    -5 | -6% | -2% | 7% | 23µM* | 0%
- CCOC(=O)/C(=C\C=C\c1ccccc1)NC(=O)c1ccccc1
    -4 | -15% | -8% | 6% | 9.2µM* | -3%
- Cc1ccc(NS(=O)(=O)c2ccc3c(c2)N(C)C(=O)CO3)cc1C
    x | 1% | x | x | u | x
- COc1ccc(CN2CC[C@H]3C=CC[C@@H](C(=O)Nc4nccs4)[C@H]3C2=O)cc1OC
    x | x | x | x | x | 1%
- Cc1nn2c(C)c(C(=O)NCc3ccco3)cnc2c1-c1ccccc1
    x | 1% | 0% | 1% | u | 1%
- Cc1c(Cl)cccc1NC(=O)Nc1ccc2snnc2c1
    x | u | u | -1% | 21µM* | -2%
- O=C(Nc1ccc(F)cc1)Nc1ccc2snnc2c1
    x | -24% | 27% | 0% | 23µM* | -5%
- Cc1ccc(F)c(NC(=O)Nc2ccc3snnc3c2)c1
    x | -3% | -23% | 1% | 1% | -2%
- CCNC(=O)c1c(NC(=O)Cc2coc3cc(C)ccc23)sc2c1CCCC2
    x | 12% | -8% | 4% | -24% | -9%
- O=S(=O)(c1ccc(-c2csc(-c3cccnc3)n2)cc1)N1CCCCC1
    -1 | -15% | -8% | 0% | 21µM* | -16%
- Clc1ccsc1-c1csc(-c2cccnc2)n1
    0 | u | -16% | 2.2µM* | x | -18%
- c1cncc(-c2csc(-c3cccnc3)n2)c1
    -4 | -1% | -13% | -1% | u | -15%
- COc1cc(SC)ccc1C(=O)N1CCN(Cc2ccc3c(c2)OCO3)CC1
    0 | -3% | 15% | 1% | 15µM* | -4%
- COc1cccc(OC)c1C(=O)N1CCN(Cc2ccc3c(c2)OCO3)CC1
    0 | 0% | -5% | 0% | 9% | 0%
- CCOC(=O)N1CCN(C(=O)c2ccc(SC)cc2OC)CC1
    -2 | 0% | 1% | 0% | 12µM* | 1%
- CCOC(=O)C1CCN(C(=O)c2ccc(SC)cc2OC)CC1
    0 | -5% | -2% | 0% | 4% | 0%
- COC(=O)c1ccc(COc2ccc(C3C4=C(CCCC4=O)Nc4onc(C)c43)cc2)cc1 (stereo not drawn)
    0 | 3% | -17% | 13% | 3% | 28µM*
- Cc1ccc2nc(SCC(=O)OCc3ccccc3)nc(=O)n2c1
    0 | 1% | x | 7% | -13% | 28µM*
- Cc1ccc2nc(SCC(=O)NCCc3ccccc3)nc(=O)n2c1
    1 | -3% | x | 0% | -2% | 28µM*
- O=C(CSc1nc(=O)n2cc(Cl)ccc2n1)NCCc1ccccc1
    -2 | -4% | x | -1% | 13% | -10%
- CCOC(=O)c1cc(S(=O)(=O)Nc2cc(C)c(Cl)cc2OC)[nH]n1
    x | 4% | -5% | 5% | x | 2%
- O=C(OCC#CCSc1nnc(-c2cc3ccccc3cc2O)o1)c1ccc(F)cc1
    x | 0% | x | x | -1% | x
- COc1ccccc1/C=N/OCc1ccc(C#N)cc1
    1 | -5% | -12% | 0% | 18µM* | x
- COC(=O)c1ccc(CO/N=C/c2ccccc2OC)cc1
    0 | 28% | -10% | -1% | -19% | -11%
- Cc1ccc(/C=C2\Sc3ccccc3C2=O)s1
    -2 | -12% | -17% | 11µM* | 16% | 2%
- COc1ccccc1N1C(=O)S/C(=C\c2ccc(C)s2)C1=O
    88* | -2% | -33% | 5% | 5% | 1%
- CC(=O)Nc1ccc(/C=C2\Sc3ccccc3C2=O)cc1
    0 | -3% | -7% | 5% | 9% | 1%
- O=C(Cn1c(=O)n(CCc2ccccc2)c(=O)c2c3c(sc21)CCCC3)Nc1ccc(F)c(F)c1
    x | 2% | -1% | -1% | -10% | 0%
- Cc1ccc(CSc2nc3c([nH]c4ccccc43)c(=O)n2C)cc1
    x | 1% | 3% | 0% | x | -3%
- CCOc1ccc(NC(=O)C(=O)NCCc2csc(-c3ccc(F)cc3)n2)cc1
    x | 0% | -1% | 0% | x | -1%
- C[C@@H]1[C@H](c2ccccc2)OCCS(=O)(=O)N1Cc1ccccc1Br
    x | x | x | x | x | -5%
- COc1cc(NS(=O)(=O)c2ccc(OC)c(C)c2C)c(OC)cc1Cl
    0 | -13% | 20% | 0% | 21µM* | 0%
- COc1ccc(-n2c(Cc3ccccc3)nnc2SCc2nc(-c3cccs3)no2)cc1
    x | -18% | 4% | 7% | u | 1%
- O=C(CSc1nnc(-c2c[nH]c3ccccc23)o1)N(Cc1ccccc1)c1ccc(F)cc1
    -3 | u | 13% | 4% | 18µM* | -19%

Part of the list above with just A549 viability and IL-2 act:
SMILES,A549 viability,IL-2 act
COC(=O)c1ccc(CO/N=C/c2ccccc2OC)cc1,28%,0
Cc1ccc(/C=C2\Sc3ccccc3C2=O)s1,-12%,-2
COc1ccccc1N1C(=O)S/C(=C\c2ccc(C)s2)C1=O,-2%,88*
CC(=O)Nc1ccc(/C=C2\Sc3ccccc3C2=O)cc1,-3%,0

Record cards, as listed above. Order of screens: IL-2 act	A549 viability	miR-21 reporter	Nrf2 activator	Nrf2 block	ClpP mod
O=C(OCC#CCSc1nnc(-c2cc3ccccc3cc2O)o1)c1ccc(F)cc1 reads x	0%	x	x	-1%	x
CCOC(=O)N1CCN(C(=O)c2ccc(SC)cc2OC)CC1 reads -2	0%	1%	0%	12µM*	1%
COc1ccccc1N1C(=O)S/C(=C\c2ccc(C)s2)C1=O reads 88*	-2%	-33%	5%	5%	1%

(more compounds)
Values in the order – IL-2 act | A549 viability | miR-21 reporter | Nrf2 activator | Nrf2 block | ClpP mod
- COc1ccc(CN(C(=O)CSc2nnc(-c3ccccc3C)o2)c2ccc(F)cc2)cc1
    -1 | 7% | -1% | 1% | x | -4%
- Cc1oc2c(c1C(=O)N1CCC(C)CC1)C(=O)c1ccccc1C2=O
    -4 | u | 25% | -4% | 26µM* | -2%
- CCOC(=O)C1CCN(C(=O)c2c(C)oc3c2C(=O)c2ccccc2C3=O)CC1
    -1 | u | 30% | -4% | u | -1%
- COc1ccc(/C=C/C(=O)C(C(N)=O)=C2SCCS2)cc1
    0 | -29% | -20% | u | 13% | 1%
- NC(=O)C(C(=O)/C=C/c1ccc(Cl)cc1)=C1SCCS1
    0 | u | 14% | 7.9µM* | u | 1%
- Cc1cccn2c(=O)nc(SCC(=O)N3CC(C)OC(C)C3)nc12 (stereo not drawn)
    0 | 3% | x | 0% | -4% | 32µM*
- Cc1cccn2c(=O)nc(SCC(=O)N3CCCC3)nc12
    0 | 0% | x | 0% | 6% | x
